Molecular target: N-terminally truncated recombinant hDHODH enzyme (Homo sapiens, UniProt Q02127)
Assay: Human DHODH inhibition assay
Details: read-out: IC50 range

Protein sequences, listed by entry. Tags and fused reporters are not part of them.
UniProt Q02127, whole entry: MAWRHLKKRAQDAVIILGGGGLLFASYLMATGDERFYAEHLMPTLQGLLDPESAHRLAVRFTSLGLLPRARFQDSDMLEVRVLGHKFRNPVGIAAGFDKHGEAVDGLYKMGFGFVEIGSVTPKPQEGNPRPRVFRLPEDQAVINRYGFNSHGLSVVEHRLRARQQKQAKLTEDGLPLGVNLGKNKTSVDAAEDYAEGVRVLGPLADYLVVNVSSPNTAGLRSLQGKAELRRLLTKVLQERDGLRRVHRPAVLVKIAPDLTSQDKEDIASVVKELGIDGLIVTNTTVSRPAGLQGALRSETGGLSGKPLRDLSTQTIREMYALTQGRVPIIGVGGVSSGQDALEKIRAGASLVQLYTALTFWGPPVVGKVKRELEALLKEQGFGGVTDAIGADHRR

[2H]C([2H])([2H])C([2H])([2H])C([2H])([2H])C([2H])([2H])Oc1cccc(-c2cc(F)c(NC(=O)C3=C(C(=O)O)CCC3)c(F)c2)c1
IC50: < 100 nM
